The source of these data is PubChem BioAssay AID720711 (National Center for Advancing Translational Sciences (NCATS), 2013).

Protein sequences, listed by entry. Tags and fused reporters are not part of them. Lines headed by an entry give the natural chain unless they say otherwise; changes in a name come on top.
UniProt Q8WZA2: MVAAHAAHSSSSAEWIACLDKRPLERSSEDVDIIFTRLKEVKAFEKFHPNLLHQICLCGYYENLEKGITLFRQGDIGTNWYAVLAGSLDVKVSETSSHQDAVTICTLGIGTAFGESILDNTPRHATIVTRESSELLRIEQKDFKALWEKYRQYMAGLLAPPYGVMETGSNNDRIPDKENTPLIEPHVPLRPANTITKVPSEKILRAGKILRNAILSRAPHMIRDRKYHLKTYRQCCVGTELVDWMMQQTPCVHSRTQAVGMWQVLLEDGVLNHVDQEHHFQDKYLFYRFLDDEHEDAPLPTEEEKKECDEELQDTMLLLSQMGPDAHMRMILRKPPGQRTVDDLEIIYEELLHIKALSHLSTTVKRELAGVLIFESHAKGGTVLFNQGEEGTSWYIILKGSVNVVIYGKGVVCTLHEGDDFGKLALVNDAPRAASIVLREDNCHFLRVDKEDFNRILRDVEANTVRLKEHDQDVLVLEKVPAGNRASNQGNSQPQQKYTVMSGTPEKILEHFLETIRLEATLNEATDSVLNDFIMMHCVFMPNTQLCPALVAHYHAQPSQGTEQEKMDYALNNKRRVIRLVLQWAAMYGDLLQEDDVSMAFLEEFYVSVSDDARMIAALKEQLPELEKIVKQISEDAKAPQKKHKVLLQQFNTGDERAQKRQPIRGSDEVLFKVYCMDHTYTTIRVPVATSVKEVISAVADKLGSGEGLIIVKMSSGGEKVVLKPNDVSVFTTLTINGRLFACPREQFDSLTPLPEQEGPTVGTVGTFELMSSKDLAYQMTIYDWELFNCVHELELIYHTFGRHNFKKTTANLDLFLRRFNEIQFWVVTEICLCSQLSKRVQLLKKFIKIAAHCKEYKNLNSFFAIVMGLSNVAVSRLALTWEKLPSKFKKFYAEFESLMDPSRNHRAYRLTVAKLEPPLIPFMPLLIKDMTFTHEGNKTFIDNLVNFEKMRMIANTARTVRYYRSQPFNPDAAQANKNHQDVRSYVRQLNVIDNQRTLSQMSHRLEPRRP

The entries are a selection whose mix differs from that of the whole data set. Activity calls are given as the source filed them. The call rests on the fitted dose curve; in most records, active means well fitted activation curve with a large enough effect; inconclusive means small, poorly fitted or top-dose-only effect; inactive means no such curve, though single readings can be large or run the other way.

In this test the target is Rap guanine nucleotide exchange factor 4 (Homo sapiens) (UniProt Q8WZA2). The experiment in a line: qHTS for Agonist of cAMP-regulated guanine nucleotide exchange factor 4 (EPAC2): primary screen. Further: nearly all actives have a fitted effect of over 50% in size. Particulars: biochemical qHTS, 100% = 6.5 mM cAMP response; at 154 µM (top of the series). From the text:
In multi-cellular eukaryotic organisms, the effects of cAMP are transduced by two ubiquitously-expressed intracellular cAMP receptors, the classic protein kinase A/cAMP-dependent protein kinase (PKA/cAPK) and the more recently discovered exchange protein directly activated by cAMP/cAMP-regulated guanine nucleotide exchange factor (EPAC/cAMP-GEF). Both PKA and EPAC are ubiquitously expressed in all tissues, and an increase in intracellular cAMP levels will lead to the activation of both PKA and EPAC. Therefore, careful dissections of the individual role and relative contribution of EPAC and PKA within the overall cAMP signaling in various model systems are critical for further elucidating the mechanism of cAMP signaling. To date no EPAC-specific antagonists and agonist, as well as isoform-specific agonists have been reported, and developing EPAC-specific pharmacological probes to determine the physiological functions that EPAC play in the overall cAMP-mediated signaling remains a major challenge within the research field. Furthermore, identified regulators of EPAC may lead to new mechanism-based therapeutic strategies specifically targeting the EPAC / cAMP-signaling components as EPAC has been implicated to play important roles in major human pathological conditions such as diabetes, heart disease, and cancer.
This qHTS will be used to screen the Molecular Libraries Small Molecule Repository (MLSMR) as a concentration-titration series using the NCGC unique quantitative screening (qHTS) platform to find activators for EPAC2. In addition, this assay will also be used as a counterscreen for the EPAC1 qHTS. This fluorescent based assay is developed and validated for EPAC2 that measures exchange using EPAC effector Rap1 complex with BODIPY-GDP, a GDP analog with a tethered fluorophores. Activators are identified by monitoring the change in fluorescence signal as the exchanged free BODIPY-GDP has a reduced fluorescence compared to Rap1-bound BODIPY-GDP. […] in signal (activation) is the desired outcome for the EPAC2 agonist while no activity in this assay is desired for the EPAC1 agonist counterscreen.
[1] de Rooij, J., Zwartkruis, F. J., Verheijen, M. H., Cool, R. H., Nijman, S. M., Wittinghofer, A., and Bos, J.L. (1998) Nature 396, 474-477
[2] Kawasaki, H., Springett, G. M., Mochizuki, N., Toki, S., Nakaya, M., Matsuda, M., Housman, D. E., and Graybiel, A. M. (1998) Science 282, 2275-2279
NIH Chemical Genomics Center [NCGC]
NIH Molecular Libraries Probe Centers Network [MLPCN]
Assay Submitter (PI): Xiaodong Cheng, The University of Texas, Medical Branch
Briefly, three uL of reagents (100 nM EPAC2, 250 nM RAP1B-BODIPY-GDP, 50 uM GDP) were dispensed into a 1536-well Greiner black solid-bottom medium binding assay plate. Controls and test compounds (23 nL) were transferred to the plate via a Kalypsys pin tool equipped with a 1536-pin array. The plates were centrifuged at 1,000 rpm for 15 seconds followed by 5 minute incubation at room temperature. The assay plates were read at 5 minute intervals for 30 minutes in the ViewLux plate reader using 480nm excitation and 540nm emission filters. The results were normalized to the agonist positive control of 6.5 mM cAMP.
Background: Quantitative high-throughput screening tests each substance at several concentrations.
With `C[N+]1=C2C=CC=CC=C2SC12C([N+](=O)[O-])=CC([N+](=O)[O-])=C[C-]2[N+](=O)[O-]` (stereo unspecified), the activation was inactive: -10.5%. Take `Nc1ccc([As](=O)(O)c2ccc(N)cc2)cc1`: the activation was inactive: 1.38%. For `CCN(/C(=N/P(=O)(N1CCOCC1)N1CCOCC1)N1CCOCC1)c1ccc(OC)cc1` the value was inactive: 0.742%; for `CN(C)C(=O)OCCc1n(C)cc[n+]1C`, inactive: 4.75%. For `CC(C)=N/N=C(\N)N[N+](=O)[O-]` the value was inactive: 6.01%; for `CC(C)c1nc(Nc2ccccc2)n(P(=O)(N(C)C)N(C)C)n1`, inactive: -0.965%; for `c1cc(-c2nn[nH]n2)ccc1-c1nn[nH]n1`, inactive: 3.09%. For `CC1CCN(C(=O)Oc2c(Cl)cc(Cl)c3cccnc23)CC1` the value was inactive: -19.4%; for `COc1ccc(C2=NCC(CBr)S2)cc1` (stereo unspecified), inactive: 4.5%; for `CC(=O)N1C2C3N(C(C)=O)C1C1N(C(C)=O)C(C(N1C(C)=O)N3C(C)=O)N2C(C)=O`, inactive: -19.5%. In the case of `O=[N+]([O-])c1cccc2n[nH]nc12`, the activation was inactive: 10.9%. For `O=[N+]([O-])c1cc([N+](=O)[O-])c(CCNc2ccccc2)c([N+](=O)[O-])c1` the value was inactive: -1.04%; for `CCc1nc2c(n1)c1c(non1O)c1c2no[n+]1[O-]`, inactive: -9.64%.

As to `Cc1ccc(NP(=O)(Oc2ccccc2)Oc2ccccc2)nc1`, the activation is inactive: 1.05%. Then `CC(C)(C)C(=O)NC(Sc1ccncn1)C(Cl)(Cl)Cl` (stereo unspecified), with inactive: 3.13%; and `O=[N+]([O-])c1ncn(CCn2ncnc2[N+](=O)[O-])n1`, with inactive: 4.43%. For `O=[N+]([O-])c1cccc(NC2=NCC(CBr)S2)c1` (stereo unspecified) the value was inactive: 7.04%. As for `COC(=O)C1(C)COP(=O)(Nc2ccccc2)OC1` (stereo unspecified), the activation is inactive: 4.83%.

As for `O=C(O)CNc1ccc([As](=O)(O)O)cc1`, the activation is inactive: 11.4%. Then `O=P1(N(CCCl)CCCl)OCCCS1` (stereo unspecified), with inactive: 5.24%. With `O=C(Nc1cc([As](=O)(O)O)ccc1O)c1ccccc1`, the activation is inactive: 9.31%. As to `CCN(N=Nc1nonc1N)c1nonc1N`, the activation was inactive: 3.33%. For `Nc1cccc2ccc([As](=O)(O)O)cc12` the value was inactive: -0.852%; for `CCCC1OP(N)(=O)OCC1CC` (stereo unspecified), inactive: -1.15%; for `O=C(O)c1ccccc1[As](=O)(O)O`, inactive: 7.55%. Then `CC(=O)Nc1ccc([As](=O)(O)O)cc1`, with inactive: -5.85%; and `CN(C)P(=O)(N(C)C)n1c(Nc2ccccc2)nnc1-c1ccccc1`, with inactive: 14.5%. With `O=P(Nc1nc2ccc(Cl)cc2s1)(c1ccccc1)c1ccccc1`, the activation is inactive: 6.62%.

Consider `CN(C(=O)Cc1ccc(Cl)c(Cl)c1)[C@H]1CCCC[C@@H]1N1CCCC1`, for which the activation is inactive: 2.27%. As to `Cc1ccc(NP(=O)(Oc2ccccc2F)Oc2ccccc2F)nc1`, the activation was inactive: 16.7%. Then `CCOP(=O)(Nc1ccccc1)OCC`, with inactive: -2.84%. As for `Cc1cc(SC(NC(=O)c2ccc(F)cc2)C(Cl)(Cl)Cl)ncn1` (stereo unspecified), the activation is inactive: -2.61%. Then `CC(C)CC(=O)NC(Sc1ccc(Cl)cc1)C(Cl)(Cl)Cl` (stereo unspecified), with inactive: -1.45%; and `Nc1cc(N)c2nonc2c1[N+](=O)[O-]`, with inactive: 5.21%; and `O=C(NC(Sc1ccncn1)C(Cl)(Cl)Cl)c1ccccc1` (stereo unspecified), with inactive: -6.8%. For `Oc1ccccc1CNc1ccccn1` the value was inactive: 16.2%; for `O=[N+]([O-])C1C(O)C(O)C([N+](=O)[O-])C(O)C1O` (stereo unspecified), inactive: 13.2%; for `NC(=O)c1cc([N+](=O)[O-])cc([N+](=O)[O-])c1N`, inactive: 0.531%.

On to `Cc1ccc(N/C(=N/P(=O)(N2CCOCC2)N2CCOCC2)N2CCOCC2)cc1`, for which the activation is inactive: 11.8%. For `CN(C(=O)Cc1ccc(Cl)c(Cl)c1)[C@H]1CCCC[C@H]1N1CCCC1` the value was inactive: 3.65%. Then `Cc1ccc(OP(=O)(Nc2nccs2)Oc2ccc(C)cc2)cc1`, with inactive: -0.357%. For `COc1ccccc1OP(=O)(Nc1ccc(C)cn1)Oc1ccccc1OC` the value was inactive: 7.86%; for `Clc1ccc(Cl)c(NC2=NCC(CBr)S2)c1` (stereo unspecified), inactive: 6.42%. As to `CN1CCCC(OC(=O)C(c2ccccc2)c2ccccc2)C1` (stereo unspecified), the activation was inactive: 0.0383%. For `COC(=O)C1(C)COP(=O)(NCc2ccccc2)OC1` (stereo unspecified), the activation was inactive: -2.18%. Then `N#C/C(=C\c1ccc(N(CCBr)CCBr)cc1)C(N)=O`, with inactive: -7.04%; and `CC(=O)c1ccc(N2CC2c2ccncc2)cc1` (stereo unspecified), with inactive: 2.85%. Then `C[C@@H]1C=CCP(=O)(Oc2ccccc2)O1` (stereo partly specified), with inactive: 7.37%. As to `C[C@H]1OP(=O)(Oc2ccccc2)C[C@@H]2O[C@@H]21` (stereo partly specified), the activation is inactive: -1.34%. With `Cc1ccccc1CN(C)C(=O)COC(=O)C(O)(c1ccccc1)c1ccccc1`, the activation was inactive: 7.09%. For `CC(=O)Nc1ccc(Oc2c([N+](=O)[O-])cc([N+](=O)[O-])cc2[N+](=O)[O-])cc1` the value was inactive: 2.86%.
